T1: human GITR, membrane bound (on activated human T cells or on 3A9-hGITR cells) (UniProt Q9Y5U5 26-241)
T1 chain: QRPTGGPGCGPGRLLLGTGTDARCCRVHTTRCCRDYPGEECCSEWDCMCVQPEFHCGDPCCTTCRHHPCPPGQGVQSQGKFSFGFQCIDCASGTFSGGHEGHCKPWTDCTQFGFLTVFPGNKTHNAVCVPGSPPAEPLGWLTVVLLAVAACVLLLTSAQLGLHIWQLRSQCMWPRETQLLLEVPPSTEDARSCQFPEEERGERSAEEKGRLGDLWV


Target: T1, human GITR, membrane bound (on …)
Assay: FACS

EC50 | Binder
0.203 nM | anti-GITR.g2.g1f (antibody) chain 1: QVQLVESGGGVVQPGRSLRLSCAASGFTFSSYGMHWVRQAPGKGLEWVAVIWYEGSNKYYADSVKGRFTISRDNSKNTLYLQMNSLRAEDTAVYYCARGGSMVRGDYYYGMDVWGQGTTVTVSSASTKGPSVFPLAPCSRSTSESTAALGCLVKDYFPEPVTVSWNSGALTSGVHTFPAVLQSSGLYSLSSVVTVPSSNFGTQTYTCNVDHKPSNTKVDKTVERKCCVE[human IgG1 Fc not given here] chain 2: AIQLTQSPSSLSASVGDRVTITCRASQGISSALAWYQQKPGKAPKLLIYDASSLESGVPSRFSGSGSGTDFTLTISSLQPEDFATYYCQQFNSYPYTFGQGTKLEIKRTVAAPSVFIFPPSDEQLKSGTASVVCLLNNFYPREAKVQWKVDNALQSGNSQESVTEQDSKDSTYSLSSTLTLSKADYEKHKVYACEVTHQGLSSPVTKSFNRGEC
0.286 nM | anti-GITR-IgG1.1f (antibody) chain 1: QVQLVESGGGVVQPGRSLRLSCAASGFTFSSYGMHWVRQAPGKGLEWVAVIWYEGSNKYYADSVKGRFTISRDNSKNTLYLQMNSLRAEDTAVYYCARGGSMVRGDYYYGMDVWGQGTTVTVSSASTKGPSVFPLAPSSKSTSGGTAALGCLVKDYFPEPVTVSWNSGALTSGVHTFPAVLQSSGLYSLSSVVTVPSSSLGTQTYICNVNHKPSNTKVDKRVEPKSCDKTHTCPPCPAPEAEGAPSVFLFPPKPKDTLMISRTPEVTCVVVDVSHEDPEVKFNWYVDGVEVHNAKTKPREEQYNSTYRVVSVLTVLHQDWLNGKEYKCKVSNKALPSSIEKTISKAKGQPREPQVYTLPPSREEMTKNQVSLTCLVKGFYPSDIAVEWESNGQPENNYKTTPPVLDSDGSFFLYSKLTVDKSRWQQGNVFSCSVMHEALHNHYTQKSLSLSPG chain 2: AIQLTQSPSSLSASVGDRVTITCRASQGISSALAWYQQKPGKAPKLLIYDASSLESGVPSRFSGSGSGTDFTLTISSLQPEDFATYYCQQFNSYPYTFGQGTKLEIKRTVAAPSVFIFPPSDEQLKSGTASVVCLLNNFYPREAKVQWKVDNALQSGNSQESVTEQDSKDSTYSLSSTLTLSKADYEKHKVYACEVTHQGLSSPVTKSFNRGEC
